These results are taken from publication PMC10464304, “Refined read‐out: The hUHRF1 Tandem‐Tudor domain prefers binding to histone H3 tails containing K4me1 in the context of H3K9me2/3” (Protein Science : A Publication of the Protein Society, 2023).

Common to all, as to test: fluorescence polarisation; fluorescence anisotropy titration; 100 nM FITC-labeled peptide in the cuvette, protein added stepwise; 23°C; 100 mM KCl, 20 mM HEPES pH 7.5, 10% v/v glycerol
Conditions in all cases: both partners purified
On the technique in general: Fluorescence polarisation rises when a labelled molecule tumbles more slowly, as on binding a larger partner.

In assay [1] the target is T1, GST-hUHRF1-TTD (126-280) D142A (human, UniProt Q96T88 126-280, D142A).
T1 construct: Tandem Tudor domain (TTD) of human UHRF1, UniProt Q96T88, residues 126-280; also called TTD D142A mutant; source: E. coli, purified (Glutathione Agarose 4B); not shown: GST, N-terminal, kept
T1 sequence (looked up): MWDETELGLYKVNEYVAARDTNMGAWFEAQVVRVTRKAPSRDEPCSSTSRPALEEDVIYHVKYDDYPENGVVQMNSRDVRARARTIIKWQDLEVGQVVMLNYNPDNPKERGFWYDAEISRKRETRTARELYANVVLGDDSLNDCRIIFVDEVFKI

The target in assay [2] is T2, GST-hUHRF1-TTD (126-280) R207E (human, UniProt Q96T88 126-280, R207E).
T2 construct: Tandem Tudor domain (TTD) of human UHRF1, UniProt Q96T88, residues 126-280; also called TTD R207E; source: E. coli, purified (Glutathione Agarose 4B); not shown: GST, N-terminal, kept
T2 sequence (looked up): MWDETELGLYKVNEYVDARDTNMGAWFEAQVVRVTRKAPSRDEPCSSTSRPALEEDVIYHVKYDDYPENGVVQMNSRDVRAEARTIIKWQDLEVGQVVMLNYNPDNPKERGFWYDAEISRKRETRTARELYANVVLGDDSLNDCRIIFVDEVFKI

Assay [3] deals with T3, GST-hUHRF1-TTD (126-280) D142E (human, UniProt Q96T88 126-280, D142E).
T3 construct: Tandem Tudor domain (TTD) of human UHRF1, UniProt Q96T88, residues 126-280; source: E. coli, purified (Glutathione Agarose 4B); not shown: GST, N-terminal, kept
T3 sequence (looked up): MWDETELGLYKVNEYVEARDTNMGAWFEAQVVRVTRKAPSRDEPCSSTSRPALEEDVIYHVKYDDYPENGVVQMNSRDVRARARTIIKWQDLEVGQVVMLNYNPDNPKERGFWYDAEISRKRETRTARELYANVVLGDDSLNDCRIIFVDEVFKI

Assay [4] concerns the target T4, GST-fused Tandem-Tudor domain (TTD) of human UHRF1, residues 126-280, wild type (human, UniProt Q96T88 126-280).
T4 construct: Tandem Tudor domain (TTD) of human UHRF1, UniProt Q96T88, residues 126-280; borders as in Rothbart et al., 2012; also called hUHRF1-TTD; UHRF1-TTD; source: E. coli, purified (Glutathione Agarose 4B); not shown: GST, N-terminal, kept
T4 sequence (looked up): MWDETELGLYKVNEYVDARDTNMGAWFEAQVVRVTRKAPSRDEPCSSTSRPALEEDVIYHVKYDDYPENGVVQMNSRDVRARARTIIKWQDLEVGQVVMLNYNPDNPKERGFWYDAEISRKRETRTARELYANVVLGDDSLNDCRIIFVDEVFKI

For assay [5], the target named is T5, GST-hUHRF1-TTD (126-280) E153Q (human, UniProt Q96T88 126-280, E153Q).
T5 construct: Tandem Tudor domain (TTD) of human UHRF1, UniProt Q96T88, residues 126-280; source: E. coli, purified (Glutathione Agarose 4B); not shown: GST, N-terminal, kept
T5 sequence (looked up): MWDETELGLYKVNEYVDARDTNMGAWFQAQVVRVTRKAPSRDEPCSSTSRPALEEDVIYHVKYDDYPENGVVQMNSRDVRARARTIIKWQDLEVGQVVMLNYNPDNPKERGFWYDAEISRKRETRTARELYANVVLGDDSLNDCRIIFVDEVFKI

Assay [6] addresses T6, GST-hUHRF1-TTD (126-280) M224A (human, UniProt Q96T88 126-280, M224A).
T6 construct: Tandem Tudor domain (TTD) of human UHRF1, UniProt Q96T88, residues 126-280; source: E. coli, purified (Glutathione Agarose 4B); not shown: GST, N-terminal, kept
T6 sequence (looked up): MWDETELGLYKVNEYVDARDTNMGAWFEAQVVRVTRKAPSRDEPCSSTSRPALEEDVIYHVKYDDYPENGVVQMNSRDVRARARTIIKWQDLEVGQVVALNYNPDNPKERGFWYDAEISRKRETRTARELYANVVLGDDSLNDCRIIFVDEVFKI

Assay [7] deals with T7, GST-hUHRF1-TTD (126-280) F278A (human, UniProt Q96T88 126-280, F278A).
T7 construct: Tandem Tudor domain (TTD) of human UHRF1, UniProt Q96T88, residues 126-280; source: E. coli, purified (Glutathione Agarose 4B); not shown: GST, N-terminal, kept
T7 sequence (looked up): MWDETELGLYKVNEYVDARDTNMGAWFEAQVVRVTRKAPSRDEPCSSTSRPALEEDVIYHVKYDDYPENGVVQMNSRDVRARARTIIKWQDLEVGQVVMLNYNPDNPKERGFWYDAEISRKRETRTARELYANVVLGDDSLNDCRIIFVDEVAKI

Assay [8] addresses T8, GST-hUHRF1-TTD (126-280) E153D (human, UniProt Q96T88 126-280, E153D).
T8 construct: Tandem Tudor domain (TTD) of human UHRF1, UniProt Q96T88, residues 126-280; also called TTD E153D; source: E. coli, purified (Glutathione Agarose 4B); not shown: GST, N-terminal, kept
T8 sequence (looked up): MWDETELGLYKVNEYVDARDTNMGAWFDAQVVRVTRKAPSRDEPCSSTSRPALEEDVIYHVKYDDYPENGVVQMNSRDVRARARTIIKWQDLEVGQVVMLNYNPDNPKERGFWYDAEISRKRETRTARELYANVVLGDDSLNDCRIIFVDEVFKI

For assay [9], the target named is T9, GST-hUHRF1-TTD (126-280) D142N (human, UniProt Q96T88 126-280, D142N).
T9 construct: Tandem Tudor domain (TTD) of human UHRF1, UniProt Q96T88, residues 126-280; source: E. coli, purified (Glutathione Agarose 4B); not shown: GST, N-terminal, kept
T9 sequence (looked up): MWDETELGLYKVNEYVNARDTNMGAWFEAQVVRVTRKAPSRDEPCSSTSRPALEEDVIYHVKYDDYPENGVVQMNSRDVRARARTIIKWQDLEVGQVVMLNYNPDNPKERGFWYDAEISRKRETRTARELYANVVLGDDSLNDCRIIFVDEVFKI

Assay [10] deals with T10, GST-hUHRF1-TTD (126-280) A208G (human, UniProt Q96T88 126-280, A208G).
T10 construct: Tandem Tudor domain (TTD) of human UHRF1, UniProt Q96T88, residues 126-280; source: E. coli, purified (Glutathione Agarose 4B); not shown: GST, N-terminal, kept
T10 sequence (looked up): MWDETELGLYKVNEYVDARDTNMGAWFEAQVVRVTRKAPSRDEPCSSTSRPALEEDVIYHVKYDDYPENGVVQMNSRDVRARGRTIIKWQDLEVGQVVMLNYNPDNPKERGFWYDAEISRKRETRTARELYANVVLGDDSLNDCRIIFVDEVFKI

In assay [11] the target is T11, GST-hUHRF1-TTD (126-280) R207H (human, UniProt Q96T88 126-280, R207H).
T11 construct: Tandem Tudor domain (TTD) of human UHRF1, UniProt Q96T88, residues 126-280; source: E. coli, purified (Glutathione Agarose 4B); not shown: GST, N-terminal, kept
T11 sequence (looked up): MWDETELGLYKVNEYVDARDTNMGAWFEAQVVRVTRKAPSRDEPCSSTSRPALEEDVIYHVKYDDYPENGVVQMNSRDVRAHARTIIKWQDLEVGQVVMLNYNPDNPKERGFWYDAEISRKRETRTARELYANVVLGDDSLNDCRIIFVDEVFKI

Usually Kd stands for the equilibrium constant for the complex coming apart. Read a low Kd as tighter binding.

B1: FITC-labeled H3(1-19) peptide with K9me3 (peptide, UniProt P68431 2-20, looked up)
peptide: ARTKQTARKSTGGKAPRKQ
modifications: K9me3 (trimethyl-lysine at 9); FITC-labeled
notes: histone H3 N-terminal tail, residues 1-19; also called H3K9me3; H3 K9me3
As to B1, the dissociation constant (Kd) in [1] is 4.9 µM; in assay [2], 0.22 µM; in assay [3] it was 0.98 µM; in assay [4] it was 0.68 µM; in assay [5], 13 µM; in [6] it was 1.4 µM. The dissociation constant Kd in [7] came out at 7.9 µM; in [8] it was 0.64 µM; in assay [9] it was 4.5 µM; in assay [10] it was 9.5 µM; in [11], 9.7 µM.
